Test results reported in patent US20040014209A1, “Compositions and methods for modulating cell differentiation” (priority 2002, published 2004).

Test system: APMEE explants
Assay: APMEE explant culture, cardiac gene expression by RT-PCR
Type: cell-based, chick
Text: FIG. 1, panels A-D, illustrates the relative positions of tissues employed in this study. […] We dissected anterior paraxial mesendoderm and ectoderm (APMEE; FIG. 1C) from stage 8-9 chick embryos and cultured this tissue either alone or in the presence of the adjacent neural tube and notochord (FIG. 1E). When cultured in the presence of the axial tissues, APMEE explants neither beat nor expressed the cardiac markers Nkx-2.5, GATA-4, vMHC, and cMHC-1 (FIG. 1G, lane 1). The latter gene is a chick myosin heavy-chain isoform expressed exclusively within the heart (Croissant et al. 2000). […] Although anterior paraxial mesoderm is fated to give rise to both head mesenchyme and skeletal muscles (Christ and Ordahl 1995), the skeletal muscle regulators, MyoD and Myf-5, were not expressed in APMEE explants that expressed cardiac markers after 48 h culture in vitro (FIG. 1G, lane 2). Thus, after 48 h in culture, explanted APMEE gives rise to cardiac but not skeletal muscle tissue. […]
Wnt-1 and Wnt-3a are expressed in the open neural plate and dorsal neural tube adjacent to the anterior paraxial mesoderm (FIG. 2, panels A, B). […] In addition to expression of Wnt family members in the neural tube, we detected expression of Frizzled-1, β-catenin, and Lef1, all of which are components of the Wnt signaling cascade, in APMEE explants (FIG. 1G, lanes 1, 2). […]

B1: BMP-2: Human recombinant BMP-2 (protein, UniProt P12643 283-396, looked up)
Bone morphogenetic protein 2: QAKHKQRKRLKSSCKRHPLYVDFSDVGWNDWIVAPPGYHAFYCHGECPFPLADHLNSTNHAIVQTLVNSVNSKIPKACCVPTELSAISMLYLDENEKVVLKNYQDMVVEGCGCR
Cardiogenic response / cardiac marker expression (APMEE cultured with only the dorsal neural tube): induced GATA-4 and Nkx2.5 yet failed to elicit expression of cMHC-1
Cardiac marker expression (Nkx-2.5, GATA-4, vMHC, cMHC-1) (APMEE plus neural tube and notochord explants, 48 h): induced higher levels of Nkx-2.5 but, similarly, failed to induce expression of either GATA-4 or vMHC
